Like-named read-outs stand apart in the source and are kept apart here.
Legend:
[1] = Established and other potentially significant drug interactions (Table 5); conditions: trial-based or predicted
[2] = in vivo
[3] = with anticonvulsants: carbamazepine, oxcarbazepine, phenobarbital, phenytoin
[4] = with macrolide or ketolide antibiotics: clarithromycin, erythromycin, telithromycin

With `Cc1cc(/C=C/C#N)cc(C)c1Nc1ccnc(Nc2ccc(C#N)cc2)n1` [Rilpivirine, 4-[[4-[[4-[(E)-2-cyanoethenyl]-2,6-dimethylphenyl]amino]-2-pyrimidinyl]amino]benzonitrile] the “Effect on Concentration” value ([1]; with St John's wort (Hypericum perforatum)) was “↓Rilpivirine”, the “Effect on Concentration” value [1, 3] was “↓Rilpivirine” and the “Effect on Concentration” value [1, 4] was “↑Rilpivirine”. The “Effect on Concentration” value ([1]; with systemic dexamethasone (more than a single-dose treatment)) was “↓Rilpivirine” and the “Effect on Concentration” value [2] was “↓Rilpivirine”.

With `C[C@H]1CO[C@@H]2Cn3cc(C(=O)NCc4ccc(F)cc4F)c(=O)c(O)c3C(=O)N12` [Cabotegravir, (3S,11aR)-N-[(2,4-difluorophenyl)methyl]-6-hydroxy-3-methyl-5,7-dioxo-2,3,5,7,11,11a-hexahydro[1,3]oxazolo[3,2-a]pyrido[1,2-d]pyrazine-8-carboxamide] the “Effect on Concentration” value [1, 3] was “↓Cabotegravir”, the “Effect on Concentration” value [1, 4] was “↔Cabotegravir” and the “Effect on Concentration” value [2] was “↓Cabotegravir”.

From patent US12636285B2 (dated 2026)
